Laboratory results taken from IntAct's records for PubMed 20562920.

B1: Zinc finger protein SNAI1 (Homo sapiens), O95863 (parent)
chain: MPRSFLVRKPSDPNRKPNYSELQDSNPEFTFQQPYDQAHLLAAIPPPEILNPTASLPMLIWDSVLAPQAQPIAWASLRLQESPRVAELTSLSDEDSGKGSQPPSPPSPAPSSFSSTSVSSLEAEAYAAFPGLGQVPKQLAQLSEAKDLQARKAFNCKYCNKEYLSLGALKMHIRSHTLPCVCGTCGKAFSRPWLLQGHVRTHTGEKPFSCPHCSRAFADRSNLRAHLQTHSDVKKYQCQACARTFSRMSLLHKHQESGCSGCPR

Variants of: B1
Conditions: with kdm1a_human KDM1A

Variant | effect of a mutation on the interaction
P2A | disrupting interaction
